Laboratory results: ChEMBL document CHEMBL1136781, “Comparison of in vitro P-glycoprotein screening assays: recommendations for their use in drug discovery” (J Med Chem, 2003)

Amino acid sequences for entries named in this document (tags omitted).
UniProt P21447, whole entry: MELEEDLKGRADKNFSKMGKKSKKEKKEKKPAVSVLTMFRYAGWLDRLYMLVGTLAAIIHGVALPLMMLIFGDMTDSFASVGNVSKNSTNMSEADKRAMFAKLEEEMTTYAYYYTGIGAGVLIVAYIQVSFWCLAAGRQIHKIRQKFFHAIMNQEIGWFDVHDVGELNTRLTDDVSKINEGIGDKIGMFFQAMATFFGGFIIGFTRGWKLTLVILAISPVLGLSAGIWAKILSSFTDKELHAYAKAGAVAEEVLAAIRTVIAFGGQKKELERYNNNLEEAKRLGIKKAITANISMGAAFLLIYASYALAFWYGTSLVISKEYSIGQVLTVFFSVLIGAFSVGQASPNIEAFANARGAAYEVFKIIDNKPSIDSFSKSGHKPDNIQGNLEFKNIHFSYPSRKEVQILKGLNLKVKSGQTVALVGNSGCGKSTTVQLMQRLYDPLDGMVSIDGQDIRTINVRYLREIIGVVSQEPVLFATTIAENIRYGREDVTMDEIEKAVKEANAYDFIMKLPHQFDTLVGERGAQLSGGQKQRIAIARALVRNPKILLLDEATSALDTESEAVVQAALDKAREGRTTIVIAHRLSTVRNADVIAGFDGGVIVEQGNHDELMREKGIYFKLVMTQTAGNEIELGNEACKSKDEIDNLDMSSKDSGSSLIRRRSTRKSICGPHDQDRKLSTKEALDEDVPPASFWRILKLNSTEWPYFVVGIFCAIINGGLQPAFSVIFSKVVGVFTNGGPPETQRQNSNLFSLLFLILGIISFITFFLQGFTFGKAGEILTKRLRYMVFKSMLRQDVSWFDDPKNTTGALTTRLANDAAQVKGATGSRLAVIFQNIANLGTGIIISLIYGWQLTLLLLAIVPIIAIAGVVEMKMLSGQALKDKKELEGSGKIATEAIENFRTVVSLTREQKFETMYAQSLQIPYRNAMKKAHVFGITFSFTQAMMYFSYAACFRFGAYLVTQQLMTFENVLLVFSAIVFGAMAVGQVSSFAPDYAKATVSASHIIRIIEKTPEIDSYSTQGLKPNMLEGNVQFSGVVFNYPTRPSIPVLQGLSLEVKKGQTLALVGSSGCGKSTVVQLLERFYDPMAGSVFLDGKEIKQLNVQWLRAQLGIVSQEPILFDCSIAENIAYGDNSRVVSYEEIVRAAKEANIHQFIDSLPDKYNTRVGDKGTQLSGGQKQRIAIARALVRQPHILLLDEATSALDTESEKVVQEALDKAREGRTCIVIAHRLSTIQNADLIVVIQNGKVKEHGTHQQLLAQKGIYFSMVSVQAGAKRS
UniProt P08183, whole entry: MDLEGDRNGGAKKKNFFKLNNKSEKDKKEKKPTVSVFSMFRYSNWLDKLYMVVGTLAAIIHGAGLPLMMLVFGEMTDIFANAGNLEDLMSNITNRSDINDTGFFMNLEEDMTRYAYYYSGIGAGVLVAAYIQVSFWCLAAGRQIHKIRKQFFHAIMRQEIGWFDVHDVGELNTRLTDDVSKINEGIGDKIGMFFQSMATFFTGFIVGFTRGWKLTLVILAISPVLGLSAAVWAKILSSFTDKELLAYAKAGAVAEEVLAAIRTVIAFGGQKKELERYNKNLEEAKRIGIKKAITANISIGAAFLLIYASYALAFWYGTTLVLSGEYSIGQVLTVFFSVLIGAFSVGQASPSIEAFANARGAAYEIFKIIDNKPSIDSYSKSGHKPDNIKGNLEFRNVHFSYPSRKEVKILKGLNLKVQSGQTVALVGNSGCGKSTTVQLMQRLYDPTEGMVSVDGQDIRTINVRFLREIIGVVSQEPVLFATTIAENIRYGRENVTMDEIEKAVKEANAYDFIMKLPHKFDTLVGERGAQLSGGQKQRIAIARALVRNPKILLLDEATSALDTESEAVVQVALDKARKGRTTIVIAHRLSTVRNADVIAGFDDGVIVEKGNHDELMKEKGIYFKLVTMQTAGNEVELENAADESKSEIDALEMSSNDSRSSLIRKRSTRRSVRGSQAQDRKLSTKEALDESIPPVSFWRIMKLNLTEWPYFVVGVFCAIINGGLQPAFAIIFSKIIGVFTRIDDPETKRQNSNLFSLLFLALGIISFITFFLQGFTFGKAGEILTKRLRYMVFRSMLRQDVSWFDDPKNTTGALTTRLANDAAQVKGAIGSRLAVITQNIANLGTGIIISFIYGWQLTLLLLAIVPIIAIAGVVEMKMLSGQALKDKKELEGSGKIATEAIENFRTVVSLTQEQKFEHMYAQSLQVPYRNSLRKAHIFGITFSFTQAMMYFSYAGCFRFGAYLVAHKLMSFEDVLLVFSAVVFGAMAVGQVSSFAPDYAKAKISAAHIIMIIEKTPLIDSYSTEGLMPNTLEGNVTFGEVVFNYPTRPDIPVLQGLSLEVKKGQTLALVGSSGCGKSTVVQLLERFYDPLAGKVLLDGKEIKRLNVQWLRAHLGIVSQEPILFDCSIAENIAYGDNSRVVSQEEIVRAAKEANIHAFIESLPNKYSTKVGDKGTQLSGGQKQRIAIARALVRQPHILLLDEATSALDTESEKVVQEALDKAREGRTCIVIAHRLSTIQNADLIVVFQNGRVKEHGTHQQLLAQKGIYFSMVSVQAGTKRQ
UniProt P06795, whole entry: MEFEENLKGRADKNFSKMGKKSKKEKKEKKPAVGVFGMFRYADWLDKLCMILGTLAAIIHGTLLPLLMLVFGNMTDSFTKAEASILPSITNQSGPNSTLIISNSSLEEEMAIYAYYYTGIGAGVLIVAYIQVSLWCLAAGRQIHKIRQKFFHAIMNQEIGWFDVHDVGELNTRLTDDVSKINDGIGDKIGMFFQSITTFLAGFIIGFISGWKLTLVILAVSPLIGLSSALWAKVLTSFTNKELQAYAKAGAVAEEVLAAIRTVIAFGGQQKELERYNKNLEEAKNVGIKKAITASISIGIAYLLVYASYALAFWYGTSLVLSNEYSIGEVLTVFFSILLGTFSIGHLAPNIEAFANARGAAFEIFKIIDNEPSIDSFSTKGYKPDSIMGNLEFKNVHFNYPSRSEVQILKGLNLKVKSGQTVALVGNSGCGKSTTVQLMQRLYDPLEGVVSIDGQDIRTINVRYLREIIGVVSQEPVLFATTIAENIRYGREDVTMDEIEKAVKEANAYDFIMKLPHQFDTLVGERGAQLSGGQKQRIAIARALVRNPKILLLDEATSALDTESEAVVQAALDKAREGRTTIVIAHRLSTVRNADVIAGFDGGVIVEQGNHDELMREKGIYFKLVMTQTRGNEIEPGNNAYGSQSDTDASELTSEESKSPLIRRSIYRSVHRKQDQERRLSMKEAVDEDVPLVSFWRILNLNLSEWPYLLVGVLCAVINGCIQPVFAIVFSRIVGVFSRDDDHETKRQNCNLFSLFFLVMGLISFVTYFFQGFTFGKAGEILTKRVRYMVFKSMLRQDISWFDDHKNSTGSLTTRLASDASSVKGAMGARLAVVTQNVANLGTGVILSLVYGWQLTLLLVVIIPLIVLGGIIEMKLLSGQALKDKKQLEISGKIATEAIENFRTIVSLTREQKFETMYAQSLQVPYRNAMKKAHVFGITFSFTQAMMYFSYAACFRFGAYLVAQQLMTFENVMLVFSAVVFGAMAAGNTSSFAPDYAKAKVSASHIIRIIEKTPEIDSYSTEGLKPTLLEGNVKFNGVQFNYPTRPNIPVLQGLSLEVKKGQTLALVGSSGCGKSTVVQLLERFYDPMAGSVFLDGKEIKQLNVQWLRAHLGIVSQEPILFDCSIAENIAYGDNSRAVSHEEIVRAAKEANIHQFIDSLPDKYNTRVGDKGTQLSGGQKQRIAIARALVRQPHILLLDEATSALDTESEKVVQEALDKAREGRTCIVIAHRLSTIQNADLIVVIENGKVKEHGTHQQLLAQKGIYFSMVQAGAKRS

How the values were obtained:
[1] = biological target: T1, ATP-dependent translocase ABCB1 (Mus musculus, UniProt P21447); test: TP_TRANSPORTER: inhibition of Calcein-AM efflux in Mdr1a-expressing LLC-PK1 cells; type: functional, cell-based
[2] = biological target: T2, ATP-dependent translocase ABCB1 (Homo sapiens, UniProt P08183); test: TP_TRANSPORTER: inhibition of Calcein-AM efflux in MDR1-expressing LLC-PK1 cells; type: functional, cell-based
[3] = biological target: T1, ATP-dependent translocase ABCB1; test: Inhibition of P-glycoprotein, mouse L-mdr1a expressed in LLC-PK1 epithelial cells using calcein-AM polarisation assay; type: functional, cell-based
[4] = biological target: T3, ATP-dependent translocase ABCB1 (Mus musculus, UniProt P06795); test: TP_TRANSPORTER: inhibition of Calcein-AM efflux in Mdr1b-expressing LLC-PK1 cells; type: functional, cell-based
[5] = biological target: T2, ATP-dependent translocase ABCB1; test: Inhibition of P-glycoprotein using ATPase in MDR1 membranes; type: functional, cell membranes; further: test concentration or dose not given here
[6] = biological target: T3, ATP-dependent translocase ABCB1; test: Inhibition of P-glycoprotein, mouse L-mdr1b expressed in LLC-PK1 epithelial cells using calcein-AM polarisation assay; type: functional, cell-based

| SMILES | pIC50 [1] | pIC50 [3] | pIC50 [4] | pIC50 [6] | other results |
| --- | --- | --- | --- | --- | --- |
| CN/C(=N/CCSCc1nc[nH]c1C)NC#N [CIMETIDINE] | < 4.30 | < 4.30 | – | – | pIC50 [2]: < 4.30 |
| CCC(C)n1ncn(-c2ccc(N3CCN(c4ccc(OCC5COC(Cn6cncn6)(c6ccc(Cl)cc6Cl)O5)cc4)CC3)cc2)c1=O (stereo not given) [ITRACONAZOLE] | – | – | 6.15 | – | – |
| CN1CC[C@]23c4c5ccc(O)c4O[C@H]2[C@@H](O)C=C[C@H]3[C@H]1C5 [MORPHINE] | – | – | – | – | Activity [5]: 3.7 nmol/min/mg |
| CCC(C)n1ncn(-c2ccc(N3CCN(c4ccc(OC[C@H]5CO[C@](Cn6cncn6)(c6ccc(Cl)cc6Cl)O5)cc4)CC3)cc2)c1=O (stereo not given in full) [ITRACONAZOLE] | – | – | – | 6.15 | – |
| O=c1[nH]c2ccccc2n1C1CCN(CCCC(c2ccc(F)cc2)c2ccc(F)cc2)CC1 [PIMOZIDE] | 5.31 | 5.31 | – | – | – |
| CC[C@H]1OC(=O)[C@H](C)[C@@H](O[C@H]2C[C@@](C)(OC)[C@@H](O)[C@H](C)O2)[C@H](C)[C@@H](O[C@@H]2O[C@H](C)C[C@H](N(C)C)[C@H]2O)[C@](C)(O)C[C@@H](C)C(=O)[C@H](C)[C@@H](O)[C@]1(C)O [ERYTHROMYCIN] | – | – | < 4.46 | < 4.46 | – |

pIC50: −log10 of the molar value.
